What was measured:
[1] = molecular target: T1, Full length WRN protein (aa 2-1432) (Homo sapiens (Human), UniProt Q14191); experiment: WRN ATPase ADP-Glo biochemical assay, Assay Format A (10 μM ATP); conditions: 0.25 nM WRN, 100 nM C6.18 ssDNA, 30 min preincubation, read-out: ATPase ADPGlo AC50 (uM)- Assay Format A
Description: Full length Werner helicase construct (Uniprot: Q14191) with an N-terminal FLAG-AVI-TEV tag was expressed using the Sf9 cell/baculovirus expression system. The harvested cell pellet was resuspended and lysed in a glass homogenizer. After insoluble material was removed by centrifugation, the helicase protein was first purified with FLAG affinity resin and then further purified through a size-exclusion chromatography column. Peak fractions containing the purified protein were concentrated, split into aliquots and frozen in liquid nitrogen to be thawed before use. Biochemical Assay Description (ATPase activity)-Assay Format A WRN activity was measured using an ATPase assay. Full length WRN protein (aa 2-1432) (production described separately) was used for the biochemical activity assays. The 39-mer ssDNA “C6.18” [NT] was purchased from IDT and used as a substrate. Quantification of ATP hydrolysis was evaluated using the ADP-Glo assay kit (Promega, Madison, WI). An enzyme titration time-course was performed to determine the optimal assay conditions. […] To evaluate the inhibitory effects of the compounds, 11-point 3-fold serial dilutions were prepared in DMSO. […] Lastly, 20 μL ATP detection reagent was added and incubated for 1 hour to generate the luminescence signal. […] Luminescence was recorded on a PHERAstar (BMG Labtech, Ortenberg, Germany). […]

Sequences of proteins named here, by UniProt entry; tags and fusion partners are left off. Residues count along the entry.
UniProt Q14191, 2-1432: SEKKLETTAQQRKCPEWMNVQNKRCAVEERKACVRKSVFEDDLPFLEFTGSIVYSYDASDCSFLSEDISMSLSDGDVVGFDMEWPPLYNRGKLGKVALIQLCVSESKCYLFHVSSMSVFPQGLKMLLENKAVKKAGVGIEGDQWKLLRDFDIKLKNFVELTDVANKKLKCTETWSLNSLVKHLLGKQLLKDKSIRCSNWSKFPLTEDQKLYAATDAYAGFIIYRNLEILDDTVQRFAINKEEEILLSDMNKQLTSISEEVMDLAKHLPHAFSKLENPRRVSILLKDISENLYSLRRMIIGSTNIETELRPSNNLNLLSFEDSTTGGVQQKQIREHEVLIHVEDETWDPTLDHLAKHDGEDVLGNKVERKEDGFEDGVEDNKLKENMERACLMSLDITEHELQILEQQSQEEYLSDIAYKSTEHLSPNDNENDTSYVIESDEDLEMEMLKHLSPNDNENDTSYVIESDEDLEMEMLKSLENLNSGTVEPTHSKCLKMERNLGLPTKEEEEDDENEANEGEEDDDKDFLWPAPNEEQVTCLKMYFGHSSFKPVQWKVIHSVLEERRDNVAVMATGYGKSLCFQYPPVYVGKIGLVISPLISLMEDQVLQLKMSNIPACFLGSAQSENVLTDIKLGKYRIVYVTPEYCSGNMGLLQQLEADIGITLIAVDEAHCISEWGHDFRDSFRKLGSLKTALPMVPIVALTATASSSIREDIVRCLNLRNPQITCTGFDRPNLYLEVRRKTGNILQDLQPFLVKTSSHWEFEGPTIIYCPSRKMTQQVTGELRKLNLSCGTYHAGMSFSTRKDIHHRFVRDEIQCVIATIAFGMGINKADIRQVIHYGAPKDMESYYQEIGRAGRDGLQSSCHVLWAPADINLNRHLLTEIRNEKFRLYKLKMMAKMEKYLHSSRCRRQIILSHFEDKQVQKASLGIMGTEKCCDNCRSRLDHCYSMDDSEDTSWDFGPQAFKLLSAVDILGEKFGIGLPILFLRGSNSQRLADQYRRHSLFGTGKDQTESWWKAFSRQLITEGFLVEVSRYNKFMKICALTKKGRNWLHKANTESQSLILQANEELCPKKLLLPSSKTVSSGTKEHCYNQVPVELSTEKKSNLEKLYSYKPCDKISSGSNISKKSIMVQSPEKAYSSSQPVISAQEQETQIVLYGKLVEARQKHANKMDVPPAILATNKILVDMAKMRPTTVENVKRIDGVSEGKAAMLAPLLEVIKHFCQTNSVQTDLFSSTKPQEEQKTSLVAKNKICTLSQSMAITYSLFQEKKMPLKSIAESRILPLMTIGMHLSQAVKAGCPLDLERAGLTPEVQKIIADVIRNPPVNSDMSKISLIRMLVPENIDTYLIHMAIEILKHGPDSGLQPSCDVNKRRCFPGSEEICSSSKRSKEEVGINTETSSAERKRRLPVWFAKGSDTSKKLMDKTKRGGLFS

[2] = molecular target: T1, Full length WRN protein (aa 2-1432); experiment: WRN ATPase ADP-Glo biochemical assay, Assay Format B (100 μM ATP); conditions: 0.25 nM WRN, 100 nM C6.18 ssDNA, 60 min preincubation, read-out: ATPase ADPGlo AC50 (uM)- Assay Format B

For “1-(5-(7-bromo-1H- benzo[d]imidazole-4- carbonyl)-2-(4- cyclobutylphenyl)- 2,3,4,5,5a,6-hexahydro- 1,2,5,7- tetraazaspiro[benzo[cd] azulene-9,1′- cyclopropan]-1(9a),2a- dien-7(8H)-yl)prop-2-en- 1-one [Compound 169]”, which AC50 [1] is on record?
The AC50 was < 0.0015 µM.

What about the AC50 [2] of the same substance?
The AC50 was 0.015 to 0.055 µM.

— patent US20250346600A1, “TRICYCLIC DERIVATIVES AND RELATED USES” (MOMA Therapeutics, Inc., priority 2023, published 2025)
